# Ab-14 light chain CDR variants: yeast mating affinities

The target is the same throughout: PDVDLGDISGINAS, from the HR2 region of SARS-CoV-2 spike.

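Phage display of a naive human antibody library on the peptide gave the parent. In library AAYL50, one, two or three CDR residues were substituted; doubles and triples were drawn at random. Affinity was read by AlphaSeq, a pooled yeast mating assay with surface-displayed partners. After mating in shaken culture at 30 °C for 16 h, diploids were selected and their barcode pairs sequenced. Read counts were normalised to the haploid input and turned into Kd by a linear fit to BCL2-family pairs of known affinity, for each replicate. Mating was done three times.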

Parent: Ab-14, a human scFv built as VH, three GGGGS repeats, VL. Only the CDRs of the light chain vary.
VH: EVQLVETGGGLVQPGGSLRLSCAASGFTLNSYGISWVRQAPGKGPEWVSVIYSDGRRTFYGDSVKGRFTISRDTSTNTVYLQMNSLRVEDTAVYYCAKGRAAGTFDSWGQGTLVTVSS
VL: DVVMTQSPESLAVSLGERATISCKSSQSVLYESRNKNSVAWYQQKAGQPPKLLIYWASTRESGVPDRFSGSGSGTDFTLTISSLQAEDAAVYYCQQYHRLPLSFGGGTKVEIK

Variants are written as CDR1, CDR2 and CDR3 of the light chain (limits as in the source). Parent: KSSQSVLYESRNKNSVA, WASTRES, QQYHRLPLS. This list gathers variants with a substitution at L30 (VL, numbered from residue 1). Kd is apparent (estimated from mating counts) and averaged on the log scale over replicates with a signal. Smaller is tighter. A pair that was not seen in any replicate is written "nd"; this usually means weak binding, but a binder can also be missed. For reference, the parent read 4.4 nM as the reference entry and 48 nM as a member of this library. Background: pairings of library AAYL50 with three empty control strains gave a value in 18% of cases (median 15 µM, 5th percentile 970 nM). Values in that range, when seen in few replicates, are hard to tell from nonspecific mating. The control count says in how many pairings with the empty strains this scFv gave a signal.

The variant KSSQSVFYESRNKNSVA / WASTRES / NQYHRSPLS showed nd (0 of 3 replicates; controls 0 of 9).
The variant KSSQSVQYEMRNDNSVA / WASTRES / QQYHRLPLS showed 7.7 µM (3 of 3 replicates; controls 2 of 9).
The variant KSSQLVVYESRNKNSVA / WASTRES / QQYHRHPLS showed 20 µM (3 of 3 replicates; controls 1 of 9).
The variant KFSQSVVYESRNKNSVA / WWSTRES / QQYHRLPLS showed 50 µM (2 of 3 replicates; controls 4 of 9).
The variant QSSQSVWMESRNKNSVA / WASTRES / QQYHRLPLS showed 990 pM (3 of 3 replicates; controls 1 of 9).
The variant KFSQSVWYESRNKNSVA / WASTQES / QQYHRLPLS showed 150 nM (3 of 3 replicates; controls 1 of 9).
The variant KPSQSVIYESRNENSVA / WASTRES / QQYHRLPLS showed 270 nM (3 of 3 replicates; controls 2 of 9).
The variant CSSQSVTYESRNKNSVA / WASTCES / QQYHRLPLS showed nd (0 of 3 replicates; controls 2 of 9).
The variant KSSQSVAYESRNKNSVA / WASTMES / QQYHYLPLS showed nd (0 of 3 replicates; controls 0 of 9).
The variant KSSQSVEYESRNKNSVA / WASLRES / QQYHRLPLS showed nd (0 of 3 replicates; controls 0 of 9).
The variant KSSQSVSYQSANKNSVA / WASTRES / QQYHRLPLS showed 6.5 µM (1 of 3 replicates; controls 2 of 9).
The variant KSSQSVGYEPRNKNSVA / WAPTRES / QQYHRLPLS showed 1.5 µM (1 of 3 replicates; controls 2 of 9).
The variant KSSQSVKYESRNKNSVA / WASTRES / QQYHRLPLS showed 14 nM (3 of 3 replicates; controls 4 of 9).
The variant KSSQSVKYESRNKNSVG / WASTRES / QQYHTLPLS showed 57 µM (2 of 3 replicates; controls 3 of 9).
The variant KSSQSVPYEGRNKNSVA / WASTRES / QQYHRLSLS showed nd (0 of 3 replicates; controls 0 of 9).
The variant KSSQSVGYESRNKHSVA / WASTRES / WQYHRLPLS showed 5.7 µM (1 of 3 replicates; controls 6 of 9).
The variant KSSQSVSYESRNKNSAA / WASTRES / QQYHNLPLS showed 170 µM (1 of 3 replicates; controls 3 of 9).
The variant KSSQSVMYESRNKNSVA / WASTRWS / QQYHRLELS showed 370 nM (3 of 3 replicates; controls 6 of 9).
The variant KSSQSVAYESRNKNWVA / WASTQES / QQYHRLPLS showed nd (0 of 3 replicates; controls 5 of 9).
The variant KSSQSVRYESNNKNSVA / WASTRES / QQYGRLPLS showed 11 nM (3 of 3 replicates; controls 0 of 9).
The variant ESSVSVKYESRNKNSVA / WASTRES / QQYHRLPLS showed 27 µM (1 of 3 replicates; controls 0 of 9).
The variant KSSQSVHYESRAKNSVA / WASTRES / QQYHRLPLS showed 18 nM (3 of 3 replicates; controls 0 of 9).
The variant KSSQSSFYESRNKNSVA / WASTRES / SQYHRLPLS showed nd (0 of 3 replicates; controls 0 of 9).
The variant KSSQSVKYRSRNKNSVA / AASTRES / QQYHRLPLS showed 4.4 µM (3 of 3 replicates; controls 3 of 9).
The variant KSSQSVCYESRNKNSVA / WASTRRS / GQYHRLPLS showed nd (0 of 3 replicates; controls 0 of 9).
The variant KSSQSVGYESRNKNDVA / WASTKES / QQYHRLPLS showed 280 nM (3 of 3 replicates; controls 1 of 9).
The variant KSSQTVPYESRNKNSVA / WASTRES / QQGHRLPLS showed 730 nM (3 of 3 replicates; controls 0 of 9).
The variant KSSQSVGYESRNKNSLA / WASTRER / QQYHRLPLS showed 70 nM (3 of 3 replicates; controls 6 of 9).
The variant KSSQSVRYESRNKNSVA / WASTRNS / QQDHRLPLS showed nd (0 of 3 replicates; controls 0 of 9).
The variant KSSQSVYYESRNKNSVA / WASTRES / QKYHRLPFS showed nd (0 of 3 replicates; controls 0 of 9).
The variant KSSQSVVYESSNKNSVA / WASTRES / QQPHRLPLS showed 2.6 nM (3 of 3 replicates; controls 7 of 9).
The variant KSSQSHDYESRNKNSVA / WALTRES / QQYHRLPLS showed 1.2 µM (2 of 3 replicates; controls 2 of 9).
The variant KSSQSVQYESRNKNSVA / WASTRAS / QQYHRLPFS showed 8.0 nM (3 of 3 replicates; controls 0 of 9).
The variant KSSQSVCYESRNKGSVA / TASTRES / QQYHRLPLS showed 250 nM (3 of 3 replicates; controls 1 of 9).
The variant KSSQSVEYESRNKNFVA / PASTRES / QQYHRLPLS showed 11 µM (2 of 3 replicates; controls 4 of 9).
The variant KSHQSVKYESRNKNSVA / WASTRES / QQYERLPLS showed 42 µM (2 of 3 replicates; controls 3 of 9).
The variant KSSQSVNYESRNKYSVA / WASTRES / QQYHRLPLS showed 39 nM (3 of 3 replicates; controls 0 of 9).
The variant KSSQSVFYESRNKNSVE / WARTRES / QQYHRLPLS showed 91 µM (2 of 3 replicates; controls 4 of 9).
The variant KSSQSVKYESRNKNTVA / WAVTRES / QQYHRLPLS showed nd (0 of 3 replicates; controls 0 of 9).
The variant KSSDSVTYESRNKNSVA / WASTRES / QQYHRLPLS showed 8.9 nM (3 of 3 replicates; controls 0 of 9).
The variant KSSQFVNYESRNKNSCA / WASTRES / QQYHRLPLS showed nd (0 of 3 replicates; controls 0 of 9).
The variant KSSQSVAYESRNKNSVG / WASTRES / QQAHRLPLS showed nd (0 of 3 replicates; controls 3 of 9).
The variant KSSQSVQYESRNKNSVA / WASTRES / TQTHRLPLS showed 45 nM (3 of 3 replicates; controls 3 of 9).
The variant KSSQSVHWESRNKNSVA / WASTRES / QQYHRLPKS showed nd (0 of 3 replicates; controls 0 of 9).
The variant KSSQSVMYESRNKNSSA / WASTRES / QQYHRLPNS showed nd (0 of 3 replicates; controls 0 of 9).

Picked from the list: the 3 lowest averages where every replicate gave a value.

CDR-L1,CDR-L2,CDR-L3,Kd (apparent),replicates with signal,empty controls
QSSQSVWMESRNKNSVA,WASTRES,QQYHRLPLS,990 pM,3/3,1/9
KSSQSVVYESSNKNSVA,WASTRES,QQPHRLPLS,2.6 nM,3/3,7/9
KSSQSVQYESRNKNSVA,WASTRAS,QQYHRLPFS,8.0 nM,3/3,0/9

Reference: Engelhart et al. 2022, doi:10.1038/s41597-022-01779-4. File: FLAb, binding data.